Measurements from paper PMC13181761, “New Analogs of the Compstatin Family of Clinical Complement Inhibitors with Low Picomolar Target Affinity” (Journal of Medicinal Chemistry, 2026).

Test system: C3b deposition and TCC formation in CP and LP activation
Assay: CP and LP activation ELISA / duplex ELISA (C3b and TCC detection)
Type: biochemical, human
Conditions: 1% NHS, up to 500 nM
Experimental: Simultaneous monitoring of complement activation markers at the level of C3b-deposition and terminal complement complex (TCC) formation was assessed using biotinylated Cp60 and a mouse antihuman TCC mAb (clone aE11, Hycult), respectively. To evaluate classical pathway activity, flat-bottom MaxiSorp 96-well plates (Thermo) were coated overnight at room temperature with 33 μg/mL IgM (Sigma-Aldrich) diluted in 0.1 M sodium carbonate buffer. For lectin pathway activity, plates were coated overnight with 55 μg/mL mannan (from Saccharomyces cerevisiae; Sigma-Aldrich). Plates were washed 5 times with phosphate-buffered saline (PBS; Dulbecco’s, Bioconcept) supplemented with 0.05% Tween-20 (PBS-T). […] Alkaline phosphatase yellow pNPP substrate (Sigma-Aldrich) was added, and the colorimetric reaction was monitored at 405 nm by using a plate reader (Synergy HT, BioTek) at 37 °C for 15 min. Following TCC quantification, plates were washed 5 times with PBS-T, and 1-Step Turbo TMB-ELISA solution (Thermo Scientific) was added for C3b quantification. The reaction was allowed to develop until a light blue color appeared and was stopped by adding 100 μL of 2 M sulfuric acid; the absorbance was measured at 450 nm. […]

B1: eculizumab: anti-C5 terminal pathway blocker; surrogate of the clinical mAb (MedChemExpress) (antibody, chains of the INN, looked up)
heavy: QVQLVQSGAEVKKPGASVKVSCKASGYIFSNYWIQWVRQAPGQGLEWMGEILPGSGSTEYTENFKDRVTMTRDTSTSTVYMELSSLRSEDTAVYYCARYFFGSSPNWYFDVWGQGTLVTVSSASTKGPSVFPLAPCSRSTSESTAALGCLVKDYFPEPVTVSWNSGALTSGVHTFPAVLQSSGLYSLSSVVTVPSSNFGTQTYTCNVDHKPSNTKVDKTVERKCCVECPPCPAPPVAGPSVFLFPPKPKDTLMISRTPEVTCVVVDVSQEDPEVQFNWYVDGVEVHNAKTKPREEQFNSTYRVVSVLTVLHQDWLNGKEYKCKVSNKGLPSSIEKTISKAKGQPREPQVYTLPPSQEEMTKNQVSLTCLVKGFYPSDIAVEWESNGQPENNYKTTPPVLDSDGSFFLYSRLTVDKSRWQEGNVFSCSVMHEALHNHYTQKSLSLSLG
light: DIQMTQSPSSLSASVGDRVTITCGASENIYGALNWYQQKPGKAPKLLIYGATNLADGVPSRFSGSGSGTDFTLTISSLQPEDFATYYCQNVLNTPLTFGQGTKVEIKRTVAAPSVFIFPPSDEQLKSGTASVVCLLNNFYPREAKVQWKVDNALQSGNSQESVTEQDSKDSTYSLSSTLTLSKADYEKHKVYACEVTHQGLSSPVTKSFNRGEC
effect on TCC deposition and C3 opsonization: affected only TCC deposition but not C3 opsonization
